{"sequences": {"note": "By UniProt entry, the sequences of proteins in these tests, tags left out.", "UniProt P13612, whole entry, looked up": "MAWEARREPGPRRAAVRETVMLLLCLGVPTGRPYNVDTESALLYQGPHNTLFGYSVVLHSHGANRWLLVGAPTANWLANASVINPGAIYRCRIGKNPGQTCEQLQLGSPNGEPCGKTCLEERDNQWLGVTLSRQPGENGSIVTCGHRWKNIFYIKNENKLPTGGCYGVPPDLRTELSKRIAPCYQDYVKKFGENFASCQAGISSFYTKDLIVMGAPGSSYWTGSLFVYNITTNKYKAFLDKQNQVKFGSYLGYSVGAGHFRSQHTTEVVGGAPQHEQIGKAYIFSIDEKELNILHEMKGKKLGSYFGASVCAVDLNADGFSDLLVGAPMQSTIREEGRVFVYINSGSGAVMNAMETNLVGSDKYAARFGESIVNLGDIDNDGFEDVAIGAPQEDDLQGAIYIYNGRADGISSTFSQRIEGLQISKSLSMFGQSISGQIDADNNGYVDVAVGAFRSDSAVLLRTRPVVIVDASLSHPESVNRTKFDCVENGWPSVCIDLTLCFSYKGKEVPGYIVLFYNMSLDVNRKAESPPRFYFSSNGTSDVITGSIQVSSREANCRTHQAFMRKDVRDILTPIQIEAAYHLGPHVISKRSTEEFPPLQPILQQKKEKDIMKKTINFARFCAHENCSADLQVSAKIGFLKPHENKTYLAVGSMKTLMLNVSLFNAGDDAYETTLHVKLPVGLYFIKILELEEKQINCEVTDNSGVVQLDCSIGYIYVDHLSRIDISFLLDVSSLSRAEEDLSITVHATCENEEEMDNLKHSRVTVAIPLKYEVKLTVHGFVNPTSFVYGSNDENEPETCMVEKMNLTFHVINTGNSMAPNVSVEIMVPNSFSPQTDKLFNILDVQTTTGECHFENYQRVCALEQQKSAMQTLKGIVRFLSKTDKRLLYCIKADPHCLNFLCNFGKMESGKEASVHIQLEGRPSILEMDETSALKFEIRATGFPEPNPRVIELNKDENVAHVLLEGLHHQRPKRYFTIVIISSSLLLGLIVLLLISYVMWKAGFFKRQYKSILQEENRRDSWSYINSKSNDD"}, "source": "PubChem BioAssay AID2557", "about": "(NMMLSC, 2010)", "note": "Only a part is listed here, and it is no random draw. Some structures show a salt or complex split into parts, the way the source records it. The source made the active and inactive calls. No stated cut-off is given here; in the data, active means inhibition above about 50%; inactive means the rest."}
{"molecular_target": "Integrin alpha-4 (Homo sapiens) (UniProt P13612)", "test": "VLA-4 integrin binding inhibitors – MLPCN library, flow cytometry, VLA-4 expressing cells, VLA-4 allosteric modulator project, primary screen (AID 2557)", "details": "ligand binding flow cytometry, active compounds read high, about 7 µM as worked out from the volumes in the protocol"}
{"smiles": "COc1ccc(OP(C)(=O)Nc2cccc(Br)c2)cc1", "note": "(centres undefined)", "inhibition": "inactive: 48.7%"}
{"smiles": "CN(C)CCOC(=O)C(O)(c1ccccc1)C1CCCCC1", "note": "(centres undefined)", "inhibition": "inactive: -9.79%"}
{"smiles": "COc1ccc(NP(C)(=O)Oc2ccccc2OC)cc1", "note": "(centres undefined)", "inhibition": "inactive: 2.8%"}
{"smiles": "O=[N+]([O-])c1ccc(OP2(=O)COCCO2)cc1", "note": "(centres undefined)", "inhibition": "inactive: 0%"}
{"smiles": "O=[N+]([O-])c1cc([N+](=O)[O-])c(NCC2CCS(=O)(=O)C2)c([N+](=O)[O-])c1", "note": "(centres undefined)", "inhibition": "inactive: 12.7%"}
{"smiles": "CP(=O)(Nc1ccc(SC(F)(F)F)cc1)Oc1ccc(F)cc1", "note": "(centres undefined)", "inhibition": "inactive: 13.7%"}
{"smiles": "CCOP(C)(=S)SCC(=O)NC(C)(CC)C(=O)O", "note": "(centres undefined)", "inhibition": "inactive: 2.62%"}
{"smiles": "CP(=O)(Nc1ccc2c(c1)OCCO2)Oc1ccccc1", "note": "(centres undefined)", "inhibition": "inactive: 11.6%"}
{"smiles": "Cc1ccccc1NP(C)(=O)Nc1ccccc1C", "inhibition": "inactive: -4.38%"}
{"smiles": "CP(=O)(Nc1ccccc1F)Oc1ccccc1", "note": "(centres undefined)", "inhibition": "inactive: 2.4%"}
{"smiles": "CC(C)c1ccc(OP(C)(=O)Nc2ccc(SC(F)(F)F)cc2)cc1", "note": "(centres undefined)", "inhibition": "inactive: 31.9%"}
{"smiles": "O=C(OC1CN2CCC1CC2)c1ccc([N+](=O)[O-])cc1", "note": "(centres undefined)", "inhibition": "inactive: -2.64%"}
{"smiles": "O=C(OCCN1CCN(CCOCc2ccccc2)CC1)C(O)(c1ccccc1)c1ccccc1", "inhibition": "inactive: 20.6%"}
{"smiles": "COc1ccc2c(c1O)-c1c(O)c(OC)cc3c1[C@H](C2)[N+](C)(C)CC3.O=[N+]([O-])c1cc([N+](=O)[O-])c([O-])c([N+](=O)[O-])c1[O-]", "inhibition": "inactive: 20.2%"}
{"smiles": "CCOC(=O)c1ccc(NP(C)(=O)Oc2ccc(F)cc2)cc1", "note": "(centres undefined)", "inhibition": "inactive: -5.67%"}
{"smiles": "COc1ccc(OP(C)(=O)Nc2ccc(SC(F)(F)F)cc2)cc1", "note": "(centres undefined)", "inhibition": "inactive: 4.34%"}
{"smiles": "CCN(CC)CCCOC(=O)C(O)(c1ccccc1)C1CCCCC1", "note": "(centres undefined)", "inhibition": "inactive: 20.8%"}
{"smiles": "CP(=O)(Nc1ccccc1)Oc1ccc(F)cc1", "note": "(centres undefined)", "inhibition": "inactive: 16.5%"}
{"smiles": "O=[N+]([O-])c1cc([N+](=O)[O-])c(OC2CCCCC2O)c([N+](=O)[O-])c1", "note": "(centres undefined)", "inhibition": "inactive: 20.3%"}
{"smiles": "CCCCCOc1ccc(NP(C)(=O)Oc2ccc(Cl)cc2Cl)cc1", "note": "(centres undefined)", "inhibition": "inactive: 18.9%"}
{"smiles": "Cc1cc(C)cc(OP(C)(=O)Nc2cccc(C(F)(F)F)c2)c1", "note": "(centres undefined)", "inhibition": "inactive: -14%"}
{"smiles": "COc1ccccc1OP(C)(=O)Nc1ccc(C)c(C)c1", "note": "(centres undefined)", "inhibition": "inactive: 4.79%"}
{"smiles": "COc1ccc(OP(C)(=O)Nc2ccccc2Br)cc1", "note": "(centres undefined)", "inhibition": "inactive: 13.3%"}
{"smiles": "Cc1nc2ccc3ccccc3c2o1.O=[N+]([O-])c1cc([N+](=O)[O-])c(O)c([N+](=O)[O-])c1", "inhibition": "inactive: 7.43%"}
{"smiles": "CP(=O)(OCCOc1ccccc1)OCCOc1ccccc1", "inhibition": "inactive: -3.25%"}
{"smiles": "CP(=O)(Nc1ccc(Cl)cc1Cl)Oc1ccccc1", "note": "(centres undefined)", "inhibition": "inactive: -0.16%"}
{"smiles": "COc1ccccc1OP(C)(=O)Nc1ccc(Br)cc1", "note": "(centres undefined)", "inhibition": "inactive: 5.35%"}
{"smiles": "COc1ccc(OP(C)(=O)Nc2ccccn2)cc1", "note": "(centres undefined)", "inhibition": "inactive: -1.34%"}
{"smiles": "CN(C)CCOC(=O)C(O)(c1ccccc1)C1CCCC1", "note": "(centres undefined)", "inhibition": "inactive: -0.78%"}
{"smiles": "O=[N+]([O-])c1cc([N+](=O)[O-])c(Nc2ccccn2)c([N+](=O)[O-])c1", "inhibition": "inactive: 5.24%"}
{"smiles": "Cc1c(NP(C)(=O)Oc2ccc(C(C)C)cc2)c(=O)n(-c2ccccc2)n1C", "note": "(centres undefined)", "inhibition": "inactive: 5.9%"}
{"smiles": "COc1ccccc1OP(C)(=O)Nc1ccc(C)cc1C", "note": "(centres undefined)", "inhibition": "inactive: -1.15%"}
{"smiles": "CP(=O)(Nc1ccccn1)Oc1ccccc1", "note": "(centres undefined)", "inhibition": "inactive: 5.06%"}
{"smiles": "CCc1ccc(OP(C)(=O)O)cc1", "inhibition": "inactive: 3.18%"}
{"smiles": "COc1ccc(OP(C)(=O)Nc2ccc(Br)cc2)cc1", "note": "(centres undefined)", "inhibition": "inactive: 1.59%"}
{"smiles": "CCN(CC)CC(O)COC(=O)C(O)(c1ccccc1)C1CCCCC1", "note": "(centres undefined)", "inhibition": "inactive: 6.2%"}
{"smiles": "O=C(OCCCN1CCCC1)C(O)(c1ccccc1)C1CCCCC1", "note": "(centres undefined)", "inhibition": "inactive: -7.06%"}
{"smiles": "COc1ccccc1OP(C)(=O)Nc1c(C)n(C)n(-c2ccccc2)c1=O", "note": "(centres undefined)", "inhibition": "inactive: 4.19%"}
{"smiles": "CCc1ccc(OP(C)(=O)Nc2cccnc2)cc1", "note": "(centres undefined)", "inhibition": "inactive: 13.5%"}
{"smiles": "CP(=O)(Oc1ccccc1)N1CCOC1=O", "note": "(centres undefined)", "inhibition": "inactive: 23.6%"}
{"smiles": "CC(C)(C)c1ccc(OP(C)(=O)O)cc1", "inhibition": "inactive: -4.9%"}
{"smiles": "COc1ccccc1OP(C)(=O)Nc1ccccc1Br", "note": "(centres undefined)", "inhibition": "inactive: -0.32%"}
{"smiles": "CP(=O)(Nc1ccc(Cl)cc1)Oc1ccc(F)cc1", "note": "(centres undefined)", "inhibition": "inactive: 3.63%"}
{"smiles": "CN(C)C(=O)c1c([N+](=O)[O-])cc([N+](=O)[O-])cc1[N+](=O)[O-]", "inhibition": "inactive: 0%"}
{"smiles": "Nc1ccc2c(ccc3cccnc32)n1.O=[N+]([O-])c1cc([N+](=O)[O-])c(O)c([N+](=O)[O-])c1", "inhibition": "inactive: -7.18%"}
{"smiles": "CCOC(=O)c1ccc(NP(C)(=O)Oc2ccc(Cl)cc2)cc1", "note": "(centres undefined)", "inhibition": "inactive: 9.3%"}
{"smiles": "CP(=O)(OC12CC3CC(CC(C3)C1)C2)OC12CC3CC(CC(C3)C1)C2", "inhibition": "inactive: 5.51%"}
{"smiles": "CP(=S)(Nn1cnnc1)Oc1ccccc1", "note": "(centres undefined)", "inhibition": "inactive: 18.9%"}
{"smiles": "CP(=O)(Nc1ccccc1Br)Oc1ccccc1", "note": "(centres undefined)", "inhibition": "inactive: 13%"}
{"smiles": "COc1ccccc1OP(C)(=O)Nc1ccccc1", "note": "(centres undefined)", "inhibition": "inactive: 11.3%"}
{"smiles": "CP(=O)(Oc1ccccc1)OC(c1ccccc1)C(F)(F)F", "note": "(centres undefined)", "inhibition": "inactive: -4.25%"}
{"smiles": "CP(=O)(Nc1ccc(SC(F)(F)F)cc1)Oc1ccc(Cl)cc1", "note": "(centres undefined)", "inhibition": "inactive: 6.17%"}
{"smiles": "Cc1cccc(C)c1OP(C)(=O)Nc1ccc(SC(F)(F)F)cc1", "note": "(centres undefined)", "inhibition": "inactive: -2.26%"}
{"smiles": "Cc1cc(C)cc(OP(C)(=O)Nc2ccc(SC(F)(F)F)cc2)c1", "note": "(centres undefined)", "inhibition": "inactive: 8.27%"}
{"smiles": "CCc1ccc(OP(C)(=O)N2CCN(c3ccc([N+](=O)[O-])cc3)CC2)cc1", "note": "(centres undefined)", "inhibition": "inactive: 0.1%"}
{"smiles": "CP(=O)(NC(=O)Nc1ccccc1)Oc1ccccc1", "note": "(centres undefined)", "inhibition": "inactive: 6.56%"}
{"smiles": "O=[N+]([O-])c1cc([N+](=O)[O-])c(O)c([N+](=O)[O-])c1.c1ccc(Oc2ccncc2)cc1", "inhibition": "inactive: 22.9%"}
{"smiles": "CCOC(=O)c1ccc(NP(C)(=O)Oc2ccc(OC)cc2)cc1", "note": "(centres undefined)", "inhibition": "inactive: -0.88%"}
{"smiles": "CCOP(C)(=S)SCC(=O)NC(C)C(=O)O", "note": "(centres undefined)", "inhibition": "inactive: 19.5%"}
{"smiles": "CP(=O)(Nc1ccccn1)Oc1ccc(Cl)cc1", "note": "(centres undefined)", "inhibition": "inactive: -17%"}
{"smiles": "CCN(CC)CCCOC(=O)C(O)(c1ccccc1)c1ccccc1", "inhibition": "inactive: 18.7%"}
{"smiles": "O=[N+]([O-])c1cc([N+](=O)[O-])c(Nc2cccnc2)c([N+](=O)[O-])c1", "inhibition": "inactive: 28%"}
{"smiles": "O=[N+]([O-])c1ccc2c(c1)C=Nc1ccccc1O2", "inhibition": "inactive: 4.88%"}
{"smiles": "Cc1cccc(C)c1OP(C)(N)=O", "note": "(centres undefined)", "inhibition": "inactive: 2.4%"}
{"smiles": "CC(C)(C)c1ccc(OP(C)(=O)Nc2ccc(SC(F)(F)F)cc2)cc1", "note": "(centres undefined)", "inhibition": "inactive: 19.1%"}
{"smiles": "Cc1ccc(NP(C)(=O)Oc2ccccc2)c(C)c1", "note": "(centres undefined)", "inhibition": "inactive: -0.17%"}
{"smiles": "COc1ccccc1OP(C)(=O)Nc1ccc(C)cc1", "note": "(centres undefined)", "inhibition": "inactive: -3.05%"}
{"smiles": "CCOC(=O)c1ccc(NP(C)(=O)Oc2ccccc2)cc1", "note": "(centres undefined)", "inhibition": "inactive: 15.2%"}
{"smiles": "Cc1cc(C)cc(OP(C)(N)=O)c1", "note": "(centres undefined)", "inhibition": "inactive: -0.51%"}
{"smiles": "COc1ccc(OP(C)(=O)Nc2cccc(F)c2)cc1", "note": "(centres undefined)", "inhibition": "inactive: -8.2%"}
{"smiles": "COc1ccccc1OP(C)(=O)Nc1cc(Cl)ccc1C", "note": "(centres undefined)", "inhibition": "inactive: -1.08%"}
{"smiles": "O=C(O)c1cccc(Nc2c([N+](=O)[O-])cc([N+](=O)[O-])cc2[N+](=O)[O-])c1", "inhibition": "inactive: 8.42%"}
{"smiles": "CC1=NCCc2c1[nH]c1ccccc21.O=[N+]([O-])c1cc([N+](=O)[O-])c(O)c([N+](=O)[O-])c1", "inhibition": "inactive: -0.18%"}
{"smiles": "COc1ccccc1OP(C)(=O)Nc1cccc(Br)c1", "note": "(centres undefined)", "inhibition": "inactive: 12.2%"}
{"smiles": "CCOC(=O)c1ccc(NP(C)(=O)Oc2cc(C)cc(C)c2)cc1", "note": "(centres undefined)", "inhibition": "inactive: 12.6%"}
{"smiles": "Cc1cc(C)cc(OP(C)(=O)Nc2ccc(C)cc2C)c1", "note": "(centres undefined)", "inhibition": "inactive: -3.41%"}
{"smiles": "Cc1ccc(C)c(NP(C)(=O)Oc2ccccc2)c1", "note": "(centres undefined)", "inhibition": "inactive: 8.35%"}
{"smiles": "CP(=O)(Nc1cccc(Br)c1)Oc1ccccc1", "note": "(centres undefined)", "inhibition": "inactive: 5.38%"}
{"smiles": "Cc1cc(C)cc(OP(C)(=O)Nc2ccccn2)c1", "note": "(centres undefined)", "inhibition": "inactive: -2.84%"}
{"smiles": "O=[N+]([O-])c1cc([N+](=O)[O-])c(-n2nnc3ccccc32)c([N+](=O)[O-])c1", "inhibition": "inactive: 9.89%"}
{"smiles": "O=[N+]([O-])c1cc([N+](=O)[O-])c(-c2cnn(-c3ccccc3)c2)c([N+](=O)[O-])c1", "inhibition": "inactive: -0.42%"}
{"smiles": "Cc1nc2ccc3ccccc3c2s1.O=[N+]([O-])c1cc([N+](=O)[O-])c(O)c([N+](=O)[O-])c1", "inhibition": "inactive: 0.49%"}
{"smiles": "CCOC(=O)C(CC)C1=NC(C)(C)Cc2ccccc21.O=[N+]([O-])c1cc([N+](=O)[O-])c(O)c([N+](=O)[O-])c1", "note": "(centres undefined)", "inhibition": "inactive: 5.43%"}
{"smiles": "O=[N+]([O-])c1cc([N+](=O)[O-])c(Nc2nnnn2CCO)c([N+](=O)[O-])c1", "inhibition": "inactive: -0.02%"}
{"smiles": "CC1=C2N=C(C=C3N=C(C(C)=C4[N-][C@@](C)([C@@H]5N=C1[C@](C)(CCC(=O)NC[C@@H](C)OP(=O)([O-])O[C@H]1[C@@H](O)[C@@H](n6cnc7cc(C)c(C)cc76)O[C@@H]1CO)[C@H]5CC(N)=O)[C@@](C)(CC(N)=O)[C@@H]4CCC(N)=O)[C@@](C)(CC(N)=O)[C@@H]3CCC(N)=O)C(C)(C)[C@@H]2CCC(N)=O.[C-]#N.[Co+3]", "inhibition": "inactive: 6.63%"}
{"smiles": "CN1CCCCC1COC(=O)C1(O)c2ccccc2CCc2ccccc21", "note": "(centres undefined)", "inhibition": "inactive: 7.2%"}
{"smiles": "COc1ccccc1OP(C)(=O)Nc1c(C)cccc1C", "note": "(centres undefined)", "inhibition": "inactive: 3.87%"}
{"smiles": "CP(=O)(Nc1ccc(SC(F)(F)F)cc1)Oc1ccccc1", "note": "(centres undefined)", "inhibition": "inactive: 14.3%"}
{"smiles": "CCCOc1ccc(NP(C)(=O)Oc2ccc(Cl)cc2)cc1", "note": "(centres undefined)", "inhibition": "inactive: 7.27%"}
